The values that follow are results of earlier work, collected in patent publication US4859707A, “Sulfur-substituted phenylacetamides” (Key Pharmaceuticals, Inc., priority 1983, dated 1989).

The conditions of the series: humans and most other species studied; cited from earlier work.

SMILES strings stand for the structures.

For `CCN(CC)CC(=O)Nc1c(C)cccc1C` [lidocaine, reference compound], the “Major pathway of biotransformation” value is “N-dealkylation followed by secondary oxidation, conjugation, and hydrolysis”.
